Laboratory results: patent publication US4906753A, “Preparation of 2,6-disubstituted-5-cyano-4-pyrimidinyloxyacetic acid aldose reductase inhibitors” (American Home Products Corporation, priority 1988, dated 1990)

Target: T1, aldose reductase (Bos taurus, UniProt P16116)
T1 construct: preparation of the enzyme from bovine lens; from tissue; host or cells: bovine lens
Assay: in vitro aldose reductase inhibition (modified Hayman and Kinoshita procedure)
Format: biochemical, bovine (lens)
Settings: for inhibition at 10 µM: 10^-5 M
Source text: In the present case the procedure of Hayman and Kinoshita was modified in that the final chromatography step was omitted in the preparation of the enzyme from bovine lens.

Compound | inhibition at 10 µM (Table 1) [%] | inhibition at 0.1 µM (Table 1, 10^-7 M) [%] | inhibition at 10 µM (Table 2) [%] | inhibition at 1 µM (read-out: % Inhibition IN VITRO 10^-6 M) [%]
CCCCCCSc1nc(C(C)(C)C)nc(OCC(=O)O)c1C#N [Example 11 (Table 1)] | 94 | 91 |  | 
N#Cc1c(OCC(=O)O)nc(-c2ccccc2)nc1-c1ccccc1 [Example 4 (Table 2)] |  |  | 96 | 94
